Reference: patent US20250304717A1, “CAMPTOTHECIN DERIVATIVE AND LIGAND-DRUG CONJUGATE” (HAINAN SIMCERE ZAIMING PHARMACEUTICAL CO., LTD., priority 2022, published 2025)
Like-named read-outs stand apart in the source and are kept apart here.

Assays:
[1] = tested on: OVCAR3 cells; test: Anti-tumor cell proliferation activity of anti-CDH6-ADC, OVCAR3; assay type: cell-based, human; conditions: 5 days
Text: (§1) Cell and material: The human ovarian cancer cell line OVCAR3 (CDH6 high-expression cell strain) was purchased from ATCC, the human ovarian teratoma cell line PA-1 was purchased from ATCC, bovine serum, 1640 medium (Gibco #A10491-01), MEM medium (Gibco #11095-080), MEM NEAA (Gibco #11140-050), sodium pyruvate (Gibco #11360-070), penicillin-streptomycin, and 0.25% Trypsin-EDTA (Gibco #25200-056) were purchased from Gibco, bovine insulin was purchased from Solarbio, 96 well plates were purchased from Corning (U.S.), and Cell-Titer Glo reagent was purchased from Promega (U.S.). […]
(§2) Cell proliferation activity test: The Cell-Titer Glo reagent was used to test ADC for inhibitory activity on proliferation of both OVCAR3 and PA-1 cell strains. […] After the ADC solution to be detected was added (the ADC was diluted with the medium for the corresponding cells described above, the ADC concentration was adjusted to 100 nM, then the medium was continuously and serially diluted 3-fold to give a total of 8 concentrations, and 10 μL of the prepared ADC solution was transferred to the 96-well plate so that the final concentration was 0-10 nM), the mixture was incubated at 37° C. with 5% CO2. […] The Cell-Titer Glo reagent was added and the cell activity was measured. […]
(§3) Data analysis: % Inhibition was calculated, and compound IC50 was fitted. […]

[2] = tested on: OVCAR3 subcutaneous tumor model; test: Efficacy in OVCAR3 subcutaneous tumor model-1; assay type: in vivo, Balb/c nude mice
Text: Experimental reagent: Human ovarian cancer OVCAR3 cells were purchased from ATCC, RPMI-1640 medium was purchased from Gibco (Cat. No. A104910), fetal bovine serum was purchased from Excell (Cat. No. FND500), penicillin-streptomycin was purchased from Gibco (Cat. No. 15140122), bovine insulin was purchased from Yeasen (Cat. No. 40107ES60), 0.25% trypsin-EDTA was purchased from Gibco (Cat. No. 25200-072), D-PBS (phosphate-buffered saline without calcium and magnesium ions) was purchased from Hyclone (Cat. No. SH30256.01), and Matrigel was purchased from Corning (Cat. No. 356237).
Animal information: Balb/c nude mice, female, 5-6 weeks, weight about 14-20 g, purchased from Beijing Vital River Biotechnology Co., Ltd. The mice were bred in SPF-rated environment with air exhaust for each cage individually. All animals had free access to standard certified commercial laboratory diets and water.
Cell culture: The human ovarian cancer OVCAR3 cell strain was cultured in vitro under the conditions of RPMI-1640 added with 20% fetal bovine serum, 1% penicillin-streptomycin, and […] bovine insulin, and an incubator at 37° C. with 5% CO2. The cells were digested with a 0.25% trypsin-EDTA digestive solution once a week for passaging as per conventional practice. When the cell saturation was 80%-90% and a required amount was achieved, the cells were collected and counted.
Cell inoculation: 0.1 mL of OVCAR3 cell suspension (containing 1×10^7 cells, RPMI-1640: Matrigel, volume ratio 1:1) was inoculated subcutaneously into the axilla of each mouse. On day 26 after inoculation of the cells, the mice were randomly grouped and administrated based on tumor volume.
The day when random grouping was performed was day 0.
Tumor diameters were measured twice weekly using a vernier caliper. The tumor volume was calculated using the following formula: V=0.5a×b^2, where a and b represent the long diameter and short diameter of the tumor, respectively. Mouse body weight was measured twice weekly.

[3] = tested on: PA-1 cells; test: Anti-tumor cell proliferation activity of anti-CDH6-ADC, PA-1; assay type: cell-based, human; conditions: 5 days
Text: as §1, §2, §3

[4] = 37° C., 100 μg/mL
Experimental: ADC molecules (final concentration: 100 μg/mL) were separately incubated with human plasma (Oribiotech, PB021-C) and monkey plasma (Shinuoda Bio, SND-X0107) in an incubator at 37° C. The day of incubation was defined as day 0. Samples were taken on days 7, 14 and 28 and tested for the free small molecule.
300 μL of an internal standard working solution (acetonitrile preparation) was added to 20 μL of the sample, and the mixture was vortexed for mixing for 5 min and centrifuged for 5 min (14000 rpm). 4 μL of the supernatant was analyzed by LC-MS/MS (API 6500+).

[5] = Table 24, Day 27, 3 mg/kg, single intravenous injection

B1: ADC-L1-19-P1-5 (conjugate)
heavy: EVQLVQSGAEVKKPGASVKVSCKASGYTFTDNYINWVRQAPGQRLEWMGWIYPGTGNSYYNEKFKGRVTITVDTSASTAYMELSSLRSEDTAVYLCASSYGDSFDYWGQGTTVTVSSASTKGPSVFPLAPSSKSTSGGTAALGCLVKDYFPEPVTVSWNSGALTSGVHTFPAVLQSSGLYSLSSVVTVPSSSLGTQTYICNVNHKPSNTKVDKKV[human IgG1 Fc omitted]
light: DIVMTQSPDSLAVSLGERATINCRASQDIRNYLNWYQQKPGQTPKLLISYTSRLHSGVPDRFSGSGSGTDFTLTISSLQAEDVAVYYCQQYSQLPWTFGGGTKVEIKRTVAAPSVFIFPPSDEQLKSGTASVVCLLNNFYPREAKVQWKVDNALQSGNSQESVTEQDSKDSTYSLSSTLTLSKADYEKHKVYACEVTHQGLSSPVTKSFNRGEC
IC50 [1]: 0.019 nM
Mean tumor volume (mm^3) Day 0 ([2]; Table 24, Day 0, 3 mg/kg, single intravenous injection): 153.4 mm^3
Mean tumor volume (mm^3) Day 5 ([2]; Table 24, Day 5, 3 mg/kg, single intravenous injection): 165.0 mm^3
Mean tumor volume (mm^3) Day 8 ([2]; Table 24, Day 8, 3 mg/kg, single intravenous injection): 149.3 mm^3
Mean tumor volume (mm^3) Day 12 ([2]; Table 24, Day 12, 3 mg/kg, single intravenous injection): 97.3 mm^3
Mean tumor volume (mm^3) Day 16 ([2]; Table 24, Day 16, 3 mg/kg, single intravenous injection): 68.7 mm^3
Mean tumor volume (mm^3) Day 19 ([2]; Table 24, Day 19, 3 mg/kg, single intravenous injection): 56.6 mm^3
Mean tumor volume (mm^3) Day 22 ([2]; Table 24, Day 22, 3 mg/kg, single intravenous injection): 49.4 mm^3
Mean tumor volume (mm^3) Day 27 [2, 5]: 27.3 mm^3
TG (%) Day 27 [2, 5]: 135.5%
inhibitory effect on tumor growth (in words) ([2]; single intravenous administration at 3 mg/kg, P<0.0001): significant inhibitory effect on tumor growth
IC50 [3]: 0.018 nM
Free small molecule % ([4]; Human plasma, incubation 7 days): 0.32%
Free small molecule % ([4]; Human plasma, incubation 14 days): 0.54%
Free small molecule % ([4]; Human plasma, incubation 28 days): 0.99%
Free small molecule % ([4]; Monkey plasma, incubation 7 days): 0.34%
Free small molecule % ([4]; Monkey plasma, incubation 14 days): 0.75%
Free small molecule % ([4]; Monkey plasma, incubation 28 days): 1.53%

B2: ADC-L1-19-5 (conjugate)
heavy: B1 heavy
light: B1 light
IC50 [1]: 0.021 nM
IC50 [3]: 0.017 nM
